In PubChem BioAssay AID504326 (The Scripps Research Institute Molecular Screening Center, 2011) one finds activation data, which are given here for 74 compounds.

By UniProt entry, the sequences of proteins in these tests, tags left out.
UniProt P35372, whole entry, looked up: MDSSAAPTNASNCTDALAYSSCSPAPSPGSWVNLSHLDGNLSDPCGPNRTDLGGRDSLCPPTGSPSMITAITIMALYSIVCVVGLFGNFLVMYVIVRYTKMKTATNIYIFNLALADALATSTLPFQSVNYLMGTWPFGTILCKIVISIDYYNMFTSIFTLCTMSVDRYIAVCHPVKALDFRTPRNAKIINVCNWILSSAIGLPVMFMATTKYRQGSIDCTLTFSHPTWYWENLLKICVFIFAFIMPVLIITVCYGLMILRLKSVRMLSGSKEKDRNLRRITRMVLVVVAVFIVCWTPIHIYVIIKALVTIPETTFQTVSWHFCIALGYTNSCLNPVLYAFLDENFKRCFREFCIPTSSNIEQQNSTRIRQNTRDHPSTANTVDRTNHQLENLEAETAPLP
UniProt P41143, whole entry, looked up: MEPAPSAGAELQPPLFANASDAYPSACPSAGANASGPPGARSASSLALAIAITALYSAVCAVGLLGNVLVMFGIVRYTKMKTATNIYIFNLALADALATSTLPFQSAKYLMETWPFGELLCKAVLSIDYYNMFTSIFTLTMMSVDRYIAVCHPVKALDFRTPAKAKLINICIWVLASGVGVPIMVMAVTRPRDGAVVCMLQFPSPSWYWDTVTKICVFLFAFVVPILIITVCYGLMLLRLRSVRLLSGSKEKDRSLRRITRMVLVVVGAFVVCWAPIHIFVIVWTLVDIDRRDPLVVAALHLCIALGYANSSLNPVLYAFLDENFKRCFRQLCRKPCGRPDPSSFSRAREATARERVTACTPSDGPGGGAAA

Each structure is given as a SMILES string. Only a part is listed here, and it is no random draw. Active and inactive are the calls of the source. No stated cut-off is given here; in the data, active means activation above about 18%; inactive means the rest.

The target of the test is Mu-type opioid receptor (Homo sapiens) + Delta-type opioid receptor (Homo sapiens) (UniProt P35372+P41143). Kind of test: inducers of mu-delta opioid receptor heterodimers – cell-based, luminescence, primary screen (AID 504326).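 Further: 0% = vehicle-treated cells and 100% = reference agonist.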 The following applies: cells, OPRM1-OPRD1 heterodimerization, at 9.3 µM, hits give high values.
`O=C(O)C1(Nc2ccccc2)CCN(Cc2ccccc2)CC1`: the activation is inactive: 2.75%. With `CC(C)(C)OC(=O)N1CCC(Nc2ccccc2)CC1`, the activation is inactive: -1.78%.

In the case of `CCCOc1ccc(C(=O)NCC2(N(C)C)CCCCC2)cc1`, the activation is inactive: 4.32%.

In the case of `CN1CCC(Nc2ccc(F)c(Cl)c2)CC1`, the activation is inactive: -1.69%. Regarding `CCOc1ncccc1C(=O)NCC1(N2CCOCC2)CCCCC1`, the activation was inactive: -1.53%. For the compound `CN1CCC(Nc2ccc(Cl)cc2)CC1`, the activation is inactive: -0.98%. On to `COc1cccc(C(=O)N(c2cc(C)cc(C)c2)C2CCN(C(=O)OC(C)(C)C)CC2)c1`, for which the activation is inactive: 5.27%. As for `COc1cc(OC)cc(C(=O)NCC2(N3CCOCC3)CCCCC2)c1`, the activation is inactive: 1.12%. Consider `CCC(CO)(C(=O)OC1CN2CCC1CC2)c1ccccc1` (centres undefined), for which the activation was inactive: 0.43%. As for `Fc1ccccc1NC1CCN(Cc2ccccc2)CC1`, the activation was inactive: -0.24%. In the case of `Cc1ccc(C(=O)NCC2(N3CCCCC3)CCCCC2)o1`, the activation is inactive: -1.68%. Take `Cc1ccc(NC2(C#N)CCN(Cc3ccccc3)CC2)cc1`: the activation is inactive: 0.35%. Turning to `CC(=O)N(c1ccccc1)C1CCNCC1`, the activation was inactive: -3.34%. For `COc1cc(OC)cc(C(=O)NCC2(N3CCCCC3)CCCCC2)c1`, the activation is inactive: -0.35%. For `CN(C)c1ccc(C(=O)NCC2(N3CCCCC3)CCCCC2)cc1`, the activation was inactive: -0.62%. In the case of `Cn1c(=O)[nH]cc(N(CCCl)CCCl)c1=O`, the activation is inactive: -2.28%. For `O=C(NCC1(N2CCCCC2)CCCCC1)c1ccco1`, the activation was inactive: -2.23%. Turning to `CCN1CCC(Nc2cccc(F)c2)CC1`, the activation is inactive: 0.6%. Consider `Cc1ccccc1NC1(C#N)CCN(Cc2ccccc2)CC1`, for which the activation was inactive: -2.86%.

For `N#Cc1ccc(C(=O)NCC2(N3CCCCC3)CCCCC2)cc1`, the activation is inactive: -1.02%. For `CC(C)(C)OC(=O)N1CCC(N(C(=O)c2ccccc2)c2ccc(Cl)cc2)CC1` the value was inactive: 0.92%; for `CN(C)C1(CNC(=O)c2cccc(C#N)c2)CCCCC1`, inactive: -2.35%; for `CCCN1CCC(Nc2cc(OC)cc(OC)c2)CC1`, inactive: 2.27%. Regarding `Cc1cc(N(CCCl)CCCl)ccc1C=O`, the activation was inactive: -3.04%. For `c1ccc(CN2CCC(Nc3ccccc3)CC2)cc1`, the activation was inactive: -0.94%. Turning to `COc1ccc(C(=O)NCC2(N3CCOCC3)CCCCC2)cc1OC`, the activation was inactive: -0.21%. Take `COc1cc(C(=O)NCC2(N3CCOCC3)CCCCC2)cc(OC)c1C`: the activation is inactive: 1.26%.

Consider `O=C(NCC1(N2CCOCC2)CCCCC1)c1cc(Br)ccc1Cl`, for which the activation is inactive: 5.97%.

As to `O=C(OC1CN2CCC1CC2)C1c2ccccc2C=Cc2ccccc21` (centres undefined), the activation is inactive: 1.25%. Regarding `CCOC(=O)N1CCC(Nc2ccc(C)cc2)CC1`, the activation was inactive: -2.81%. For `N/C(=N\O)c1c(N)no[n+]1[O-]`, the activation is inactive: -1.92%. For the compound `O=C(NCC1(N2CCOCC2)CCCCC1)c1cc(F)c(F)cc1Cl`, the activation is inactive: -0.46%. For `COc1cc(OC)c(C(=O)NCC2(N(C)C)CCCCC2)cc1OC`, the activation is inactive: -2.33%.

Turning to `CC(C)c1ccc(NC2CCN(C(=O)OC(C)(C)C)CC2)cc1`, the activation is inactive: 12.5%. For `CN(C)c1cccc(C(=O)NCC2(N3CCCCC3)CCCCC2)c1` the value was inactive: 2.05%.

On to `COc1ccc(CN(CCCl)CCCl)cc1Cl`, for which the activation was inactive: -1.44%. Consider `CCCOc1ccc(C(=O)NCC2(N(C)C)CCCCC2)cc1OC`, for which the activation is inactive: 3.45%.

For the compound `CN1CCC(Nc2cccc(F)c2)CC1`, the activation was inactive: -0.07%. For the compound `O=C(NCC1(N2CCCCC2)CCCCC1)c1cncc(Br)c1`, the activation was inactive: -1.89%. For `N#CC1(Nc2ccccc2)CCN(CCc2ccccc2)CC1`, the activation was inactive: -1.76%.

As to `CCN1CCC(Nc2ccc(Cl)cc2)CC1`, the activation is inactive: -2.62%. Take `O=C(NCC1(N2CCCCC2)CCCCC1)c1cccc([N+](=O)[O-])c1`: the activation was inactive: -2.24%. As for `CSc1ccc(C(=O)NCC2(N3CCOCC3)CCCCC2)cc1`, the activation is inactive: -0.15%. For `O=C(NCC1(N2CCCCC2)CCCCC1)c1ccc(OC(F)F)cc1` the value was inactive: -1.66%. Consider `O=C(NCC1(N2CCOCC2)CCCCC1)c1cc(=O)[nH]c2ccccc12`, for which the activation is inactive: 0.12%. As for `COc1cc(C(=O)NCC2(N3CCCCC3)CCCCC2)ccc1OC(F)F`, the activation was inactive: 1.34%. Take `COc1ccc(NC2CCN(C(=O)OC(C)(C)C)CC2)cc1`: the activation was inactive: -1.85%.

For `CC(C)c1ccc(C(=O)NCC2(N3CCOCC3)CCCCC2)cc1`, the activation was inactive: -0.65%. For `CN1CCN(CCOC(=O)C(O)(c2ccccc2)c2ccccc2)CC1` the value was inactive: -2.53%; for `O=C(NCC1(N2CCCCC2)CCCCC1)c1cccc(C(F)(F)F)c1`, inactive: -1.85%; for `CCOC(=O)N1CCC(Nc2ccc(F)cc2)CC1`, inactive: -3.61%.

In the case of `COc1ccc(NC2CCN(CCc3ccccc3)CC2)c(OC)c1`, the activation is inactive: 1.8%. Turning to `CCCCOc1ccc(C(=O)NCC2(N3CCOCC3)CCCCC2)cc1`, the activation was inactive: 0.57%. For `O=P1(N(CCCl)CCCl)SCCCS1`, the activation was inactive: -1.24%.

In the case of `O=C(NCC1(N2CCCCC2)CCCCC1)c1ccc(F)cc1`, the activation is inactive: -1.78%. Take `O=C1CCN(Cc2ccccc2)CC1`: the activation is inactive: 0.53%. As for `CCOc1ccc(C)cc1CN(CCCl)CCCl`, the activation was inactive: -1.6%. On to `CCOC(=O)N1CCC(Nc2cccc(C)c2)CC1`, for which the activation was inactive: -0.41%. Regarding `COc1cc(C(=O)NCC2(N(C)C)CCCCC2)ccc1OC(F)F`, the activation is inactive: 12.1%. As to `Cc1cccc(NC2(C#N)CCN(Cc3ccccc3)CC2)c1`, the activation is inactive: -0.77%. In the case of `CSc1ccccc1C(=O)NCC1(N2CCCCC2)CCCCC1` it was inactive: -1.76%; in that of `COc1ccc(C(=O)NCC2(N3CCCCC3)CCCCC2)c(OC)c1OC`, inactive: -1.26%; in that of `CC(C)(C)OC(=O)N1CCC(N(C(=O)c2ccccc2)c2ccc(F)cc2)CC1`, inactive: -2.47%. For `COc1ccc(C(=O)NCC2(N3CCCCC3)CCCCC2)cc1`, the activation is inactive: -1.66%.

With `O=C(NCC1(N2CCCCC2)CCCCC1)c1cccs1`, the activation was inactive: -1.57%.

As for `O=C(NCC1(N2CCCCC2)CCCCC1)c1ccc(=O)[nH]c1`, the activation is inactive: -0.91%. For the compound `COc1ccc(Cl)cc1C(=O)NCC1(N2CCOCC2)CCCCC1`, the activation was inactive: -1.91%.

Consider `O=C(NCC1(N2CCCCC2)CCCCC1)c1ccc(Cl)s1`, for which the activation is inactive: -1.17%. For `N#CC1(Nc2ccccc2)CCN(Cc2ccccc2)CC1` the value was inactive: -1.7%.

As for `O=C(OC1CN2CCC1CC2)C1c2ccccc2Oc2ccccc21` (centres undefined), the activation is inactive: 0.09%. For the compound `CCOC(=O)N1CCC(Nc2ccc(OC)cc2)CC1`, the activation was inactive: 0.34%. On to `Cc1cc(C)cc(N(C(=O)c2ccccc2)C2CCN(C(=O)OC(C)(C)C)CC2)c1`, for which the activation is inactive: 3.3%. Take `O=C(NCC1(N2CCCCC2)CCCCC1)c1ccc(Cl)nc1`: the activation is inactive: 0.28%.

In the case of `O=C(NCC1(N2CCOCC2)CCCCC1)c1cc2ccccc2o1`, the activation is inactive: 0.5%.
